Measurements: ChEMBL document CHEMBL1154595, “Discovery of selective nonpeptidergic neuropeptide FF2 receptor agonists” (J Med Chem, 2009)

Chains of the proteins cited; added tags and fusions are not shown. Lines headed by an entry give the natural chain unless they say otherwise; changes in a name come on top.
UniProt Q9Y5X5: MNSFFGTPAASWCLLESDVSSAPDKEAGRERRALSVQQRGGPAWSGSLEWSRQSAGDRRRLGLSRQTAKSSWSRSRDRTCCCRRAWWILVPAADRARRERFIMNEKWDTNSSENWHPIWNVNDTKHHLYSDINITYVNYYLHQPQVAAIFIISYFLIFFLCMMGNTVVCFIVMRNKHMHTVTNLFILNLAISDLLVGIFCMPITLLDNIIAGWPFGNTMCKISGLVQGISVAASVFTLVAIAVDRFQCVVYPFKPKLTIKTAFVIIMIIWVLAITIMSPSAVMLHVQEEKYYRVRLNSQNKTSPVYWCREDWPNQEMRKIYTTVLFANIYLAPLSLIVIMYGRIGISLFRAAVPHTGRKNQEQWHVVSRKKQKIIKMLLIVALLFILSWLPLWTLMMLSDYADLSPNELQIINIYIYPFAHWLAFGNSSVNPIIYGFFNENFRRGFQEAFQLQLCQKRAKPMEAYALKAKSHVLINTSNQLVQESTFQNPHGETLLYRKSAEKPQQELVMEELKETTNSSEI

Molecular target: Neuropeptide FF receptor 2 (Homo sapiens, UniProt Q9Y5X5)
Assay: Agonist activity at human NPFF2 receptor expressed in cells assessed as beta-galactosidase levels after 5 days
Type: functional, cell-based
Outline: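 Functional R-SAT assay at human NPFF1 and NPFF2 receptors in agonist mode. Dose-response curves were built from seven concentrations, each tested in triplicate. Values are mean ± SEM of at least three independent experiments.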

EC50: 501 nM
Compound: N=C(N)N/N=C/c1ccc(Cl)c(C(F)(F)F)c1
